# Apparent affinities of Ab-14 variants for a coronavirus HR2 peptide

The measurements come from Li et al. 2023 (doi:10.1038/s41467-023-39022-2) through the FLAb antibody collection.

Binding partner: SARS-CoV-2 spike HR2 peptide, sequence PDVDLGDISGINAS.

Parent: Ab-14, a human scFv built as VH, a 15-residue (Gly4Ser)3 linker, VL. Only the CDRs of the light chain vary.
VH: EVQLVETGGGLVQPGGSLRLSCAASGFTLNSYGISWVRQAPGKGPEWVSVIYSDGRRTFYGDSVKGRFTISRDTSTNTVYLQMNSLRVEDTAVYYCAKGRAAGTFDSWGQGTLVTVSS
VL: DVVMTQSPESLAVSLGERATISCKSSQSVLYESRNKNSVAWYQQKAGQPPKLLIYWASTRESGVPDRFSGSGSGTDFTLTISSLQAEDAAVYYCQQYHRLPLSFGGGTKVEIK

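The parent was found by panning a naive human phage display library on the peptide. These sequences belong to a second round, designed from the earlier measurements on random variants of the parent. Their group label is 14L_En_HC (En: ensemble of fine-tuned language models; HC: hill climbing; a sequence that several methods proposed may carry one label only). The scFvs were displayed on barcoded MATa yeast, the peptide on MATalpha yeast. Pairs that bind mate more often; barcode pairs of the diploids are counted by sequencing. Read counts were normalised to the haploid input and turned into Kd by a linear fit to BCL2-family pairs of known affinity, for each replicate. Each pool was mated in six replicate cultures.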

Variants are written as CDR1, CDR2 and CDR3 of the light chain (limits as in the source). Parent: KSSQSVLYESRNKNSVA, WASTRES, QQYHRLPLS. Scale: log10 of Kd in nM, estimated from mating counts; low values are strong binders. "nd" means that the variant was in the library but no mating with the target was seen in that replicate; the authors take this as a sign of poor binding, and no number exists.

CDR-L1,CDR-L2,CDR-L3,"log10 Kd, replicates",signal with controls
MISDLTMYGSRNVSSVA,DLSTRGS,QQYDRLPLS,1.48 / 1.34 / 1.81 / 1.26 / 1.47 / 1.55,3/18 (2.66)
TISQSAQMESHNKDSVA,DLNVRGS,QQYDRLPLS,0.75 / 1.29 / 0.61 / 0.49 / 0.92 / 0.71,1/18 (2.40)
KISQTFNVGTTNKNSLA,EMSTRGF,QDYHRLPLS,0.92 / 0.20 / 0.88 / 1.11 / 0.88 / 1.34,0/18
KISGYLQKESKNKNSVA,EMVNRES,QQYDRLPLA,1.06 / 0.85 / 0.95 / 0.66 / 0.76 / 1.02,1/18 (2.37)
KLLQEVTGHMRNRNSVA,HNSTRED,QQYDRLPLI,nd / 3.44 / 2.98 / nd / nd / nd,0/18
NFSQMVLTGSTLKNSVA,HATTREE,QQYHRLPLI,0.60 / 0.84 / 1.01 / 0.41 / 1.03 / 1.27,2/18 (2.21)
HISPSFMVESRLKNSVA,QTETRES,QQYDRLPLS,0.16 / 1.26 / 1.62 / 0.17 / 0.63 / 0.05,0/18
KLLQTVMNETRNRNNVA,HMTTRED,QQYHSLPLS,0.77 / 0.96 / 0.69 / 0.92 / 0.23 / 0.64,0/18
TIAQSMLYLSNLKNSIA,QAETRED,QQYHRLPIS,1.53 / 1.20 / 1.54 / 1.19 / 0.81 / 1.29,1/18 (1.36)
KLGSMTAIESRNLNSVA,QMDTRES,QQYHRLPLS,1.57 / 0.86 / 0.93 / 1.30 / 0.98 / 1.51,1/18 (2.75)
ILYDSVGTLSRDKNSVA,DNSTRES,QQYDRLPLS,2.98 / 1.90 / 1.92 / 2.62 / 2.95 / 2.36,1/18 (2.86)
MLGDTVMQGLYSRNSVA,QESTRAE,QQYHHLPLS,1.87 / 0.19 / 0.50 / 0.16 / 0.66 / 0.32,1/18 (2.88)
TISQSVLMTGLNRNSVA,QASERIE,QQYDRLPLS,0.77 / 0.70 / 0.65 / 0.93 / 0.77 / 0.86,2/18 (2.84)
KISQNMGETQRNKNSVA,EVSCVPS,QQYWRLPLS,2.20 / 1.19 / 1.88 / 1.47 / 1.81 / 2.14,1/18 (2.13)
TISTSMRYEQSLKNAIA,NAQTRES,QQYHRLPIS,1.00 / 1.01 / 1.12 / 0.95 / 0.91 / 1.05,3/18 (2.87)
KIGMQVTYESTVNNAIA,QMETREE,QQYHRLPLS,1.73 / 1.02 / 0.95 / 0.54 / 0.45 / 1.21,1/18 (2.57)
KISYMGEHFATNHSAIA,QASTREQ,QQYHRLPIS,1.07 / 0.80 / 0.98 / 0.63 / 1.37 / 1.19,1/18 (1.74)
KISMAYNFAQTNKNSIA,EMTTRES,QHYHRLPLS,1.13 / 1.18 / 0.97 / 0.62 / 1.35 / 1.01,1/18 (2.37)
NLSISMLHEQINKHSVA,EVRTREK,QQYDRLPLS,0.46 / 1.08 / 1.09 / 0.34 / 0.78 / 0.86,1/18 (2.25)
KLRQSTYIESFNKNNVA,EMSTRES,QSYDRLPLS,1.02 / 0.88 / 0.48 / 0.53 / 1.02 / 1.00,0/18
IISGSMIMESRNKNSVA,NAETREY,QHYDRLPLS,0.80 / 1.10 / 1.45 / 0.84 / 0.93 / 1.25,3/18 (3.11)
KLSQVTHSESINKNSIA,EMVTREV,QQYDRLPLS,1.48 / 0.35 / 1.19 / 1.03 / 0.54 / 0.95,0/18
KISGMYNKESKNKNSVA,EMVNRES,QQYDRLPLS,1.13 / 1.79 / 1.10 / 0.98 / 2.05 / 1.57,0/18
KIMQSLNYESFNKNSVA,GQETRER,QSYHRLPLS,3.11 / 1.80 / 2.87 / 2.15 / 1.96 / 3.74,2/18 (3.51)
KISMLYNYAQTNKNSIA,EMTTRES,QHYHRLPLS,1.67 / 1.59 / 0.87 / 2.13 / 1.75 / 1.43,0/18
TISQSANMESHNKNSVA,DLNVRGS,QQYDRLPLS,0.61 / 0.36 / 0.48 / 0.41 / 0.08 / 1.16,1/18 (3.68)
MMSYGWLMGSRNKRNVA,DRETRES,QQYDRLPLS,-0.01 / 0.24 / 0.46 / 0.37 / 0.26 / 0.21,0/18
QLYAVQDMTSKNSNNVA,EQSTREN,QQYHRLPLS,1.31 / 1.02 / 1.32 / 1.00 / 1.47 / 0.77,0/18
HISDLIMVASRNKNSVA,DESARPD,QQYHRLPLS,0.22 / 0.80 / 0.56 / 0.24 / 0.13 / 0.32,1/18 (3.07)
MISDLTYVGLRNVNSVA,DLSTRGN,QQYDRLPLS,0.73 / 0.65 / 0.68 / 0.89 / 1.11 / 0.72,1/18 (2.57)
KISYMGAHFSTNHSAIA,QASTREQ,QQYHRLPIS,2.19 / 1.33 / 2.43 / 1.53 / 1.79 / 1.90,1/18 (2.81)
KLSLSTSYLSVNKNSVA,EMSTRGN,QQYDRLPLS,0.65 / 0.84 / 0.57 / 0.40 / 0.62 / 0.79,0/18
KLSMMYQHTSRQKNNIA,ERSTREE,QQYHHLPLS,1.21 / 1.05 / 1.16 / 1.22 / 1.11 / 0.98,1/18 (1.97)
KLSVSWLFQSIEKNSVA,ERSTRES,QDYNRLPLS,0.51 / 0.46 / 0.77 / 0.36 / 0.93 / 0.75,0/18
TISQSMLMMNQFKNSVA,QASTRES,QCYDRLPLS,2.14 / nd / nd / nd / 2.31 / 0.94,1/18 (2.62)
MAYGGDMMQSVARNSVA,NAETRAE,QDYHRLPLS,1.08 / 0.84 / 0.76 / 0.63 / 0.79 / 1.02,4/18 (3.19)
MLSDLVKMGVRNTNSVA,DNSTRGD,QQYDRLPLS,1.08 / 0.97 / 1.05 / 0.96 / 0.89 / 1.19,2/18 (2.79)
KLREVQHVETKQKNNVA,DNDTRES,QDYYRLPLS,nd / nd / 3.14 / nd / nd / nd,4/18 (2.91)
TLTQSVGMESHNKDSVA,DLSTRGS,QQYHRLPLS,0.48 / 0.31 / 0.35 / 0.16 / 0.28 / 0.72,1/18 (2.53)
KIMQSLNYEQFNVSNVA,GQETREQ,QSYHRLPLS,1.23 / 1.01 / 1.14 / 1.11 / 0.86 / 1.15,2/18 (2.63)
HMSQVTMYGYWEKNSVA,QTSTREE,QQYDRLPLS,0.96 / 1.01 / 1.00 / 0.89 / 0.70 / 0.89,0/18
TISTSATYESINKNSVA,ELSTRGS,QQYERLPLS,nd / nd / nd / nd / nd / nd,0/18
KLTEMFQHTSKNKNNIA,ERSTREA,QQYHHLPLS,1.45 / 1.22 / 1.43 / 1.06 / 1.42 / 1.69,0/18
HISPSFMVESRLKNSVA,QTETRVQ,QQYDRLPLS,0.49 / 0.66 / 0.15 / 0.16 / 1.02 / 0.39,2/18 (2.29)
TISNSFMMENQFKNSVA,QASTRLN,QCYDRLPLS,0.93 / 0.39 / 0.85 / 1.11 / 0.77 / 0.45,0/18

Repeated from above, the 3 best binders with a signal in all replicates:

{"CDR-L1": "MMSYGWLMGSRNKRNVA", "CDR-L2": "DRETRES", "CDR-L3": "QQYDRLPLS", "log10 Kd, replicates": "-0.01 / 0.24 / 0.46 / 0.37 / 0.26 / 0.21", "signal with controls": "0/18"}
{"CDR-L1": "HISDLIMVASRNKNSVA", "CDR-L2": "DESARPD", "CDR-L3": "QQYHRLPLS", "log10 Kd, replicates": "0.22 / 0.80 / 0.56 / 0.24 / 0.13 / 0.32", "signal with controls": "1/18 (3.07)"}
{"CDR-L1": "TLTQSVGMESHNKDSVA", "CDR-L2": "DLSTRGS", "CDR-L3": "QQYHRLPLS", "log10 Kd, replicates": "0.48 / 0.31 / 0.35 / 0.16 / 0.28 / 0.72", "signal with controls": "1/18 (2.53)"}

Values of this round are not directly comparable with the first-round values of the same sequences. Three control strains display no target. For all light chain designs, 4% of the pairings with them gave a signal, with a median of 2.64 and one signal in twenty below 1.59, so weak values seen in few replicates may be background. The control count says in how many pairings with the empty strains this scFv gave a signal, with their mean in brackets. The authors averaged sequences with at least three values out of six and counted those with two or fewer as poor binders. Of ten entries with the parent sequence, four were seen in most replicates (averages 0.34 to 2.37), three in one and three in none, so single entries are noisy.